Results: PubChem BioAssay (NCATS)
“And” between values parts separate entries of the source, which are not always exact repeats. Identical values can stand only once. Only a part is listed here, and it is no random draw. Inconclusive results are not listed. The source made the active and inactive calls. Calls follow the shape of the dose curve; as a rule, active = well fitted inhibition curve with a large enough effect; inconclusive = small, poorly fitted or top-dose-only effect; inactive = flat fitted curve, though single readings scatter.

Columns and labels:
KB-3-1 = assay: Cytotoxic Profiling of Annotated Libraries Using Quantitative High-Throughput Screening (AID 1296008); settings: Five cell lines viability, CellTiter-Glo ATP luminescence, 48-72 h, active compounds read low
Procedure, shortened: (§1)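 Compounds were pin-transferred onto cells and incubated 48 or 72 hr at 37 degree Celsius, 95% humidity. CellTiter-Glo was added, plates sat 10 min at room temperature, then ATP-coupled luminescence was imaged as the viability read-out.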

HEK293 = assay: as above; settings: Five cell lines viability, CellTiter-Glo ATP luminescence, 48-72 h, active compounds read low
Procedure, shortened: as §1

HaCat [1] = assay: as above; settings: Five cell lines viability, CellTiter-Glo ATP luminescence, 48-72 h; active compounds read low
Procedure, shortened: as §1

NIH3T3 = assay: as above; settings: Five cell lines viability, CellTiter-Glo ATP luminescence, 48-72 h; active compounds read low
Procedure, shortened: as §1

CRL-7250 = normal cell line; assay: qHTS assay to identify novel small-molecules to repurpose for Merkel cell carcinoma treatment (AID 1296009); settings: MCC and control cell lines, CellTiter-Glo viability, 72 h; at 92 µM (top of the series)
Procedure, shortened: (§2)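 Luminescence from CellTiter-Glo, read 10 min after addition at room temperature, reported viability following a 72 hr, 37 degree celsius treatment with NPC or MIPE compounds in titration; values normalized to plate controls.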

HACAT [2] = assay: as above; settings: MCC and control cell lines, CellTiter-Glo viability, 72 h; at 92 µM (top of the series)
Procedure, shortened: as §2

MCC-13 = assay: as above; settings: MCC and control cell lines, CellTiter-Glo viability, 72 h; at 92.7 µM (top of the series)
Procedure, shortened: as §2

MCC-26 = assay: as above; settings: MCC and control cell lines, CellTiter-Glo viability, 72 h; at 92.7 µM (top of the series)
Procedure, shortened: as §2

MKL-1 = assay: as above; settings: MCC and control cell lines, CellTiter-Glo viability, 72 h; at 92.7 µM (top of the series)
Procedure, shortened: as §2

MKL-2 = assay: as above; settings: MCC and control cell lines, CellTiter-Glo viability, 72 h; at 92.7 µM (top of the series)
Procedure, shortened: as §2
% is scaled to controls: 0 for no effect and ±100 for the full control effect.
Also: nearly all actives have a fitted effect of over 60% in size.

CCC(=O)N(c1ccccc1)C1CCN(CCc2ccccc2)CC1
inactive: max response (KB-3-1) 8.06%

CCC(=O)N(c1ccccc1)C1(COC)CCN(CCn2nnn(CC)c2=O)CC1
inactive: max response (HEK293) -22.9% | outcome (HaCat [1]) | max response (KB-3-1) -0.781% | max response (NIH3T3) -9.68% | outcome (CRL-7250) | outcome (HACAT [2]) | activity change, negative = cytotoxicity (MCC-13) -1.89% | activity change, negative = cytotoxicity (MCC-26) -14.9% | activity change, negative = cytotoxicity (MKL-1) -20.3% | activity change, negative = cytotoxicity (MKL-2) -17.5%

CN(CCCl)CCCl
inactive: max response (HEK293) -91.4% and -9.09% | outcome (HaCat [1]) | max response (KB-3-1) 41.1% and 3.51% | max response (NIH3T3) -45.1% | outcome (NIH3T3)

CCC(=O)N(c1ccccc1)C1(COC)CCN(CCc2cccs2)CC1
inactive: max response (HaCat [1]) -5.63% | max response (KB-3-1) -11.9% | max response (NIH3T3) -13.8%
